Data published in patent US5852014A, “Condensed indole derivatives as 5HT4 -receptor antagonists” (SmithKline Beecham p.l.c., priority 1992, dated 1998).

Sequences of proteins named here, by UniProt entry; tags and fusion partners are left off. Residues count along the entry.
UniProt Q6Q253, 1-402: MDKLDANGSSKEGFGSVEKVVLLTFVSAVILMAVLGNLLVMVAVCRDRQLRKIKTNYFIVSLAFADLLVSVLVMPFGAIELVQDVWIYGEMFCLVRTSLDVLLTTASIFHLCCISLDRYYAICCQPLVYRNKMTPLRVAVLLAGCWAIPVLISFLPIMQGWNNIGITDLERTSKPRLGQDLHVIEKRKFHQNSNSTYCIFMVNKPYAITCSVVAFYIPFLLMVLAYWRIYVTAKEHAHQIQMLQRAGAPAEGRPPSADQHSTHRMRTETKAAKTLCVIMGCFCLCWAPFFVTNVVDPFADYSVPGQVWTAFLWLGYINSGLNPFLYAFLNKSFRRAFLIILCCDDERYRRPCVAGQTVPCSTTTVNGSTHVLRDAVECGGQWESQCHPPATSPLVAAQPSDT

Biological target: piglet hippocampal 5-HT4 receptors (Sus scrofa, UniProt Q6Q253)
Test: Binding to piglet hippocampal 5-HT4 receptors (125I-SB-207710)
Conditions: piglet hippocampal membranes; n=4

CCCCN1CCC(COC(=O)c2cc(I)c(N)c3c2OCCO3)CC1 [SB-207710]
Kd: 0.086 ± 0.011 nM
